## Antibody variant affinities, Ab-14 heavy chain, assay B

Target peptide (SARS-CoV-2 spike, HR2 region): PDVDLGDISGINAS

Parent: Ab-14, a human scFv built as VH, a (GGGGS)3 linker, VL. Only the CDRs of the heavy chain vary.
VH: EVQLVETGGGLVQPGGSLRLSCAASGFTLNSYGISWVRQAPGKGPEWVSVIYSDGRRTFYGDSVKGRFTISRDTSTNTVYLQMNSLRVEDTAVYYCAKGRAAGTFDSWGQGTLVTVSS
VL: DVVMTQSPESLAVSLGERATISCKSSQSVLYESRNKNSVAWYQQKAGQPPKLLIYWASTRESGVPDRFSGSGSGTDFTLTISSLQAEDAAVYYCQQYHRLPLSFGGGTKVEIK

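This is the validation round: designs drawn from the data on random variants, tested in the same kind of assay. Group labels follow the data file (Ctrl: baseline library sampled from a position-specific scoring matrix, with some repeated check sequences; Rand: our label for a block that the file lists under HC and that is probably the random mutants of the ten best first-round binders; En: ensemble of fine-tuned language models; GP: Gaussian process model; GPLM: also part of the Gaussian process libraries; HC: hill climbing; Gen: genetic algorithm; Gibbs: Gibbs sampling; a sequence that several methods proposed may carry one label only). In AlphaSeq, yeast of one mating type display the scFv and yeast of the other type display the target. Pairs that bind mate more often; barcode pairs of the diploids are counted by sequencing. Each replicate has its own calibration line, from reference interactions of the BCL2 family. There are six technical replicates.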

Each variant is given by its three heavy chain CDRs, as the data file delimits them; those of the parent are GFTLNSYGIS, VIYSDGRRTFYGDSVK, GRAAGTFDS. Variants here have at most six changes. Each Kd is an estimate from the mating assay, the geometric mean of the replicates in which the pair was seen; lower is stronger. Where no diploid with the target was found in any replicate, the entry reads "no signal": below detection, most likely a poor binder, though not proof of it. Values of this round are not directly comparable with the first-round values of the same sequences. Background: pairings of all heavy chain designs with three empty control strains gave a value in 1% of cases (median 120 nM, 5th percentile 7.0 nM). Values in that range, when seen in few replicates, are hard to tell from nonspecific mating. For each scFv, signals with the empty controls are counted beside the result. In the paper, a design with two or fewer of six values counts as a poor binder. Of ten entries with the parent sequence, four were seen in most replicates (averages 2.2 nM to 240 nM), three in one and three in none, so single entries are noisy. Some sequences occur more than once in the pool; their replicates are pooled.

For GFRLNSYGIS, VIYSDGRRTFYGDSVK, GRAAGTFDQ [Ctrl], the assay gave no signal (0 of 6 replicates; controls 1 of 18).
For KFTLNEYGIS, VIYSDGRRTFYTDSVK, GRCAGTFDS [GP_HC], the assay gave 27 nM (4 of 6 replicates; controls 0 of 18).
For GFKLNEYGIS, VIYSDGRRTFYGDSVK, GKAAGTFDS [GPLM_Gen], the assay gave 3.1 nM (6 of 6 replicates; controls 0 of 18).
For GFTLNSYGIS, VIYADGRRTFYADSVK, GRAAGTFES [Ctrl], the assay gave 430 pM (2 of 6 replicates; controls 0 of 18).
For GFTLNNYNIS, VIYADGRMTFYGDSVK, GRAAGTNKS [Rand], the assay gave no signal (0 of 6 replicates; controls 1 of 18).
For GFTLNDYGIS, VIYADGRRTFYGDSVK, GKMAKTGDS [Ctrl], the assay gave no signal (0 of 6 replicates; controls 0 of 18).
For GFTLNSYGIS, VIYADGRRTFYGDSVK, GEAAGTFDK [GPLM_Gen], the assay gave 190 pM (6 of 6 replicates; controls 0 of 18).
For GFSLNSYGIS, VIYSDGRRTFYADSVK, GREAGTFDS [GPLM_Gen], the assay gave 410 pM (6 of 6 replicates; controls 1 of 18).
For GFTLNDYGIS, VIYSDGRRVFIGDSVK, GRAAGTYDS [Ctrl], the assay gave no signal (0 of 6 replicates; controls 1 of 18).
For GYDLNSYGIS, VIYSDGRRTFHGDSVK, GRAAGWHNS [Rand], the assay gave no signal (0 of 6 replicates; controls 0 of 18).
For GFTLNSYGIS, VIYSDGRRTFYSDSVK, GQAAGTFDL [GPLM_Gen], the assay gave 1.6 nM (6 of 6 replicates; controls 0 of 18).
For GFTLNEYGIS, VIYSDGRRTFYGDSVK, GRFAGTFTS [GP_HC], the assay gave no signal (0 of 6 replicates; controls 0 of 18).
For GFSLNSYGIS, VIYSDGRRTFYSDSVK, GWVAGTFDS [GPLM_Gibbs], the assay gave 820 pM (6 of 6 replicates; controls 0 of 18).
For GFTLNDYGIS, VIYSDGRRTMYIDSVK, GRAAGTFWS [GPLM_HC], the assay gave no signal (0 of 6 replicates; controls 0 of 18).
For GFELNSYGIS, VIYSDGRRTFYSDSVK, GKEAGTFDS [GP_Gen], the assay gave 17 nM (1 of 6 replicates; controls 0 of 18).
For GFTLNSYGIS, VIYSDGRRTFYGDSVK, GQVAGTFDV [GPLM_Gibbs], the assay gave 17 nM (1 of 6 replicates; controls 0 of 18).
For GFTLNEYGIS, VIYFDGRRTFYTDSVK, GRFAGTFDS [Rand], the assay gave 36 nM (6 of 6 replicates; controls 0 of 18).
For SFELNSYGIS, VIYSDGRRTFYADSVK, GQAAGTFDS [GP_Gibbs], the assay gave 6.5 nM (6 of 6 replicates; controls 0 of 18).
For GFTLNSYGIS, VIYSDGERTFYSDSVK, GRAAGTFDS [GP_HC], the assay gave 160 nM (4 of 6 replicates; controls 0 of 18).
For GFSLNEYGIS, VIYSDGRRTFYGDSVK, GRTAGTFVS [GPLM_Gen], the assay gave 40 nM (6 of 6 replicates; controls 0 of 18).
For GFTLNSYGIS, VIYSDGMRTFYGDSVK, GTAADTFDS [Ctrl], the assay gave no signal (0 of 6 replicates; controls 0 of 18).
For GFTLNSYGIS, VIYSDGRLTFYDDSVK, GQLAGTFDS [Rand], the assay gave no signal (0 of 6 replicates; controls 0 of 18).
For GFTLNMYGIS, VIYSDGRRTFYGDSVK, GLAAGTWDS [Ctrl], the assay gave no signal (0 of 6 replicates; controls 0 of 18).
For GFTLNSYGIS, VIYSDGRRTFYGPSVK, GRAACTFDS [Ctrl], the assay gave no signal (0 of 6 replicates; controls 0 of 18).
For GFALNDYGIS, VIYSDGRRTFYIDSVK, GRLAGTFDS [GP_HC], the assay gave no signal (0 of 6 replicates; controls 0 of 18).
For GFSLNEYGIS, VIYSDGRRTFYADSVK, GRTAGTFDS [GPLM_Gen], the assay gave 720 pM (6 of 6 replicates; controls 1 of 18).
For GFTLNSYGIS, VIYSDNRRTAYKDSVK, GRAAGRFDS [Ctrl], the assay gave no signal (0 of 6 replicates; controls 0 of 18).
For GFQLNSYGIS, VIYSDGRRTFYSDSVK, GRSAGTFDS [GPLM_HC], the assay gave 12 nM (6 of 6 replicates; controls 0 of 18).
For GFTLNSYGIS, VIYSDGRRTFYTDSVK, GRAAGHFDS [Ctrl], the assay gave no signal (0 of 6 replicates; controls 0 of 18).
For GFSLNEFGIS, VIYSDGRRTFYTDSVK, GRFAGTFDS [GP_HC], the assay gave 1.1 nM (6 of 6 replicates; controls 0 of 18).
For GFDLNSYGIS, VIYSDGRRTFYQDSVK, GSAAGTFDS [GP_Gen], the assay gave 370 pM (6 of 6 replicates; controls 0 of 18).
For GFTLNSYGIS, VIYSDGRRTFYHDSVK, GRAVGTFDS [Ctrl], the assay gave no signal (0 of 6 replicates; controls 0 of 18).
For GFTLNSYGIS, VIYADGRRTFYGDSVK, GRSAGTFKI [GP_HC], the assay gave 640 pM (6 of 6 replicates; controls 0 of 18).
For GFTLESYGIS, VIYSDGRRTFYHDSVK, GQGAGTFDS [GP_HC], the assay gave no signal (0 of 6 replicates; controls 1 of 18).
For GFWLNSYGIS, VIYSDGRRTFYTDSVK, GQTAGTFDS [GP_Gibbs], the assay gave 61 nM (6 of 6 replicates; controls 0 of 18).
For GFSLNSYGIS, VIYSDGRRTFYTDSVK, GEAAGTFDA [GP_Gibbs], the assay gave 1.2 nM (6 of 6 replicates; controls 1 of 18).
For GFTLNEYGIS, VIYSDGRRTFYGDSVK, GRAAGTFFT [GP_HC], the assay gave no signal (0 of 6 replicates; controls 0 of 18).
For GFSLNSYGIS, VIYSDGRRTFYGDSVK, GKTAGTFDQ [GPLM_Gibbs], the assay gave 1.5 nM (6 of 6 replicates; controls 0 of 18).
For GFTLNTYGIS, VIYSDGRRTFYGDSVK, GRAAGTFDS [Ctrl], the assay gave 54 nM (2 of 6 replicates; controls 0 of 18).
For GFTLNSYGIS, VIYADGRRTFYGDSVK, GRAAGTFKV [GPLM_HC], the assay gave no signal (0 of 6 replicates; controls 0 of 18).
For GFDLNEYGIS, VIYADGRRTFYTDSVK, GKAAGTFDQ [En_HC], the assay gave 240 pM (6 of 6 replicates; controls 0 of 18).
For GFTINSYGIS, VIYSDGRRTFYNDSVK, GSAFGLFDS [Ctrl], the assay gave 260 nM (1 of 6 replicates; controls 1 of 18).
For GFTLNQYGIS, VIYSDGRRTFYEDSVK, GRAKGTFPS [Ctrl], the assay gave 3.7 µM (1 of 6 replicates; controls 1 of 18).
For GFTLNSCGIS, VIYSDGRRTFYGDSVK, GRTAGTFDW [Ctrl], the assay gave 820 pM (1 of 6 replicates; controls 0 of 18).
For GFVLNSYGIS, VIYSDGRRTAYGDSVK, GRAAGTFDS [GPLM_Gibbs], the assay gave 57 nM (6 of 6 replicates; controls 0 of 18).
For GFHLNSYGIS, VIYSDGQRTFYVDSVK, GRTAGTFDS [GP_Gibbs], the assay gave 48 nM (3 of 6 replicates; controls 0 of 18).
For GFALNSYGIS, VIYSDGRRTFYADSVK, GNAAGTFDS [GPLM_Gen], the assay gave 4.5 nM (6 of 6 replicates; controls 1 of 18).
For GFTLNSFGIS, VIYADGRRTFYGDSVK, GRLAGTFSS [Ctrl], the assay gave 42 nM (6 of 6 replicates; controls 1 of 18).
For GFTLNSYGIS, VIYSDGRRTFYIDSVK, GREAGTFDS [Ctrl+GPLM_Gibbs], the assay gave 13 nM (11 of 12 replicates; controls 0 of 36).
For GFTLDSYGIS, VIYSDGRRTFYGDSVK, GRTAGTFDV [GPLM_Gen], the assay gave 1.6 nM (6 of 6 replicates; controls 0 of 18).
For GFTLESYGIS, VIYSDGRRTFYKDSVK, GQAAGTFDS [GPLM_Gibbs], the assay gave 22 nM (3 of 6 replicates; controls 0 of 18).

Repeated from above, the 8 best binders with a signal in all replicates:

With GFTLNSYGIS, VIYADGRRTFYGDSVK, GEAAGTFDK [GPLM_Gen] the result was 190 pM (6 of 6 replicates; controls 0 of 18).
With GFDLNEYGIS, VIYADGRRTFYTDSVK, GKAAGTFDQ [En_HC] the result was 240 pM (6 of 6 replicates; controls 0 of 18).
With GFDLNSYGIS, VIYSDGRRTFYQDSVK, GSAAGTFDS [GP_Gen] the result was 370 pM (6 of 6 replicates; controls 0 of 18).
With GFSLNSYGIS, VIYSDGRRTFYADSVK, GREAGTFDS [GPLM_Gen] the result was 410 pM (6 of 6 replicates; controls 1 of 18).
With GFTLNSYGIS, VIYADGRRTFYGDSVK, GRSAGTFKI [GP_HC] the result was 640 pM (6 of 6 replicates; controls 0 of 18).
With GFSLNEYGIS, VIYSDGRRTFYADSVK, GRTAGTFDS [GPLM_Gen] the result was 720 pM (6 of 6 replicates; controls 1 of 18).
With GFSLNSYGIS, VIYSDGRRTFYSDSVK, GWVAGTFDS [GPLM_Gibbs] the result was 820 pM (6 of 6 replicates; controls 0 of 18).
With GFSLNEFGIS, VIYSDGRRTFYTDSVK, GRFAGTFDS [GP_HC] the result was 1.1 nM (6 of 6 replicates; controls 0 of 18).

The measurements come from Li et al. 2023 (doi:10.1038/s41467-023-39022-2) through the FLAb antibody collection.